Laboratory results: ChEMBL document CHEMBL5726859, “5-[(piperazin-1-yl)-3-oxo-propyl]-imidazolidine-2,4-dione derivatives as ADAMTS inhibitors for the treatment of osteoarthritis” (2018)

Tests used:
Collagenase 3 = Collagenase 3 (Homo sapiens, UniProt P45452)
Interstitial collagenase = molecular target: T1, Interstitial collagenase (Homo sapiens, UniProt P03956)
T1 sequence (P03956 whole entry): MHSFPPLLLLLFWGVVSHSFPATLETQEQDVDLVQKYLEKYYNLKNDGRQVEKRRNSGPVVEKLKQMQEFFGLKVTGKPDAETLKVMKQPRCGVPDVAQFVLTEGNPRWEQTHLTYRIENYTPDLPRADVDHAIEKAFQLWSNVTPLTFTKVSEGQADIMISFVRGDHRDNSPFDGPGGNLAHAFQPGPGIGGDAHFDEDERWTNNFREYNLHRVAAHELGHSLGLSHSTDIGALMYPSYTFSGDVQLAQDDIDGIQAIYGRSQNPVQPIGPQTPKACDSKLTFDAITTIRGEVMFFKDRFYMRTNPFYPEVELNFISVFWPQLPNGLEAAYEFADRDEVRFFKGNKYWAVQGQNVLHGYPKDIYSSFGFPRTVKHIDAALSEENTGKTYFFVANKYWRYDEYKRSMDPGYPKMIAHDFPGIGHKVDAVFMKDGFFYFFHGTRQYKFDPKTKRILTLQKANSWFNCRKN

| Compound | IC50 (Collagenase 3) [µM] | IC50 (Interstitial collagenase) [µM] |
| --- | --- | --- |
| Cc1cc(Cl)c(Cl)cc1N1CCN(C(=O)CCC2(C)NC(=O)NC2=O)CC1 (configuration not stated) | > 20 | – |
| C[C@H]1CN(C(=O)CC[C@@]2(C3CC3)NC(=O)NC2=O)CCN1c1cc(F)cc(F)c1 | – | > 30 |
